This is a selection; strong and weak results do not stand in their true shares. The source made the active and inactive calls. Rule as the data show it: active = inhibition above about 15%; inconclusive = no clear call, values can overlap the other calls; inactive = below that.
target: NAD-dependent protein deacylase sirtuin-5, mitochondrial (Homo sapiens) (UniProt Q9NXA8); experiment: blockers of sirtuin-5 deacylase activity – biochemical, fluorescence imaging, single point, set 5, primary screen (AID 652115); details: Purified SirT5, succinyl-peptide AMC, trypsin-coupled fluorescence; at 15 µM; hits give high values

Chains of the proteins cited; added tags and fusions are not shown.
UniProt Q9NXA8, whole entry: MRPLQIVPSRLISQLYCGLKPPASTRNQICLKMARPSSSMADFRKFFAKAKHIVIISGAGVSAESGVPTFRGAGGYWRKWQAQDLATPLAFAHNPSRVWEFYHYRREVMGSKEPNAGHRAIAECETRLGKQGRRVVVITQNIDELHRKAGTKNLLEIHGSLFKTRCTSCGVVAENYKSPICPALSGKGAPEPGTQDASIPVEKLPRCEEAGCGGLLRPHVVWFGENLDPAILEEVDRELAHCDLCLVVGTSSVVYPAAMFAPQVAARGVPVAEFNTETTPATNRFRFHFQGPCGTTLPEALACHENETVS

Question: For COc1cc(OC)c(C(=O)NCC2(N(C)C)CCCCC2)cc1OC, which inhibition is on record?
Answer: inactive: -1.74%

Question: CCCCn1nnnc1C(c1ccnc2ccccc12)N1CCC(n2c(=O)[nH]c3ccccc32)CC1 (stereo not drawn) was tested. Which inhibition did it give?
Answer: inactive: -2.08%

Question: CC(C)c1ccc(NC2CCN(C(=O)OC(C)(C)C)CC2)cc1 was tested. Which inhibition did it give?
Answer: inactive: 0.438%

Question: With CN(C)c1cccc(C(=O)NCC2(N3CCCCC3)CCCCC2)c1 as the compound, how does the inhibition read?
Answer: inactive: -1.94%

Question: For COc1ccc(CN(CCCl)CCCl)cc1Cl, which inhibition is on record?
Answer: inactive: 10.6%

Question: With COc1ccc(C(c2nnnn2C2CCCC2)N2CCC(n3c(=O)[nH]c4ccccc43)CC2)cc1 (stereo not drawn) as the compound, how does the inhibition read?
Answer: inactive: -0.81%

Question: Which inhibition does the source give for CCCOc1ccc(C(=O)NCC2(N(C)C)CCCCC2)cc1OC here?
Answer: inactive: -3.64%

Question: Which inhibition does the source give for CN1CCC(Nc2cccc(F)c2)CC1 here?
Answer: inactive: 11.8%

Question: How did the inhibition turn out when O=C(NCC1(N2CCCCC2)CCCCC1)c1cncc(Br)c1 was run?
Answer: inactive: -5.21%

Question: With O=c1[nH]c2ccccc2n1C1CCN(C(c2ccnc3ccccc23)c2nnnn2C2CCCC2)CC1 (stereo not drawn) as the compound, how does the inhibition read?
Answer: inactive: 2.27%

Question: With COc1ccc(C(=O)NCC2(N3CCOCC3)CCCCC2)cc1OC as the compound, how does the inhibition read?
Answer: inactive: 6.64%

Question: With COc1cc(C(=O)NCC2(N3CCOCC3)CCCCC2)cc(OC)c1C as the compound, how does the inhibition read?
Answer: inactive: 0.484%

Question: Which inhibition does the source give for CCCCn1nnnc1C(c1ccccc1)N1CCC(n2c(=O)[nH]c3ccccc32)CC1 (stereo not drawn) here?
Answer: inactive: -0.158%

Question: O=C(NCC1(N2CCOCC2)CCCCC1)c1cc(Br)ccc1Cl was tested. Which inhibition did it give?
Answer: inactive: -5.96%

Question: With O=c1[nH]c2ccccc2n1C1CCN(C(c2cccs2)c2nnnn2C2CCCC2)CC1 (stereo not drawn) as the compound, how does the inhibition read?
Answer: inactive: 0.988%

Question: Which inhibition does the source give for CCCCn1nnnc1C(c1cccc(OC)c1OC)N1CCC(n2c(=O)[nH]c3ccccc32)CC1 (stereo not drawn) here?
Answer: inactive: 10.9%

Question: COc1cccc(C(c2nnnn2C(C)(C)C)N2CCC(n3c(=O)[nH]c4ccccc43)CC2)c1OC (stereo not drawn) was tested. Which inhibition did it give?
Answer: inactive: -1.66%

Question: How did the inhibition turn out when N#Cc1ccc(C(=O)NCC2(N3CCCCC3)CCCCC2)cc1 was run?
Answer: inactive: -3.18%

Question: How did the inhibition turn out when CC(C)(C)OC(=O)N1CCC(N(C(=O)c2ccccc2)c2ccc(Cl)cc2)CC1 was run?
Answer: inactive: 5.18%

Question: CC(C)(C)n1nnnc1C(c1cccc2ccccc12)N1CCC(n2c(=O)[nH]c3ccccc32)CC1 (stereo not drawn) was tested. Which inhibition did it give?
Answer: inactive: 4.54%

Question: How did the inhibition turn out when CN(C)C1(CNC(=O)c2cccc(C#N)c2)CCCCC1 was run?
Answer: inactive: -0.827%

Question: How did the inhibition turn out when O=c1[nH]c2ccccc2n1C1CCN(C(c2ccccc2)c2nnnn2C2CCCC2)CC1 (stereo not drawn) was run?
Answer: inactive: 1.65%

Question: With Cc1cc(N(CCCl)CCCl)ccc1C=O as the compound, how does the inhibition read?
Answer: inactive: 0.912%

Question: For Fc1ccccc1NC1CCN(Cc2ccccc2)CC1, which inhibition is on record?
Answer: inactive: 1.29%

Question: Cc1ccc(C(=O)NCC2(N3CCCCC3)CCCCC2)o1 was tested. Which inhibition did it give?
Answer: inactive: -2.21%

Question: With Cc1ccc(NC2(C#N)CCN(Cc3ccccc3)CC2)cc1 as the compound, how does the inhibition read?
Answer: inactive: 2.15%

Question: CCC(c1nnnn1C1CCCCC1)N1CCC(n2c(=O)[nH]c3ccccc32)CC1 (stereo not drawn) was tested. Which inhibition did it give?
Answer: inactive: 5.69%

Question: With COc1cccc(C(c2nnnn2C2CCCCC2)N2CCC(n3c(=O)[nH]c4ccccc43)CC2)c1OC (stereo not drawn) as the compound, how does the inhibition read?
Answer: inactive: -0.729%

Question: For CC(=O)N(c1ccccc1)C1CCNCC1, which inhibition is on record?
Answer: inactive: -4.81%

Question: COc1cc(OC)cc(C(=O)NCC2(N3CCCCC3)CCCCC2)c1 was tested. Which inhibition did it give?
Answer: inactive: 0.74%

Question: With O=c1[nH]c2ccccc2n1C1CCN(C(c2ccnc3ccccc23)c2nnnn2C2CCCCC2)CC1 (stereo not drawn) as the compound, how does the inhibition read?
Answer: inactive: 0.88%

Question: Which inhibition does the source give for Cn1c(=O)[nH]cc(N(CCCl)CCCl)c1=O here?
Answer: inactive: -2.69%

Question: How did the inhibition turn out when O=C(NCC1(N2CCCCC2)CCCCC1)c1ccco1 was run?
Answer: inactive: -0.145%

Question: COc1ccc(C(c2nnnn2C2CCCCC2)N2CCC(n3c(=O)[nH]c4ccccc43)CC2)cc1 (stereo not drawn) was tested. Which inhibition did it give?
Answer: inactive: -4.67%

Question: CC(C)(C)n1nnnc1C(c1ccnc2ccccc12)N1CCC(n2c(=O)[nH]c3ccccc32)CC1 (stereo not drawn) was tested. Which inhibition did it give?
Answer: inactive: 0.628%

Question: Which inhibition does the source give for NN(c1ccccc1)C1CCN(CCc2ccccc2)CC1 here?
Answer: inactive: -1.31%

Question: How did the inhibition turn out when O=C(O)C1(Nc2ccccc2)CCN(Cc2ccccc2)CC1 was run?
Answer: inactive: -1.33%

Question: How did the inhibition turn out when CC(C)(C)OC(=O)N1CCC(Nc2ccccc2)CC1 was run?
Answer: inactive: -3.69%

Question: With O=c1[nH]c2ccccc2n1C1CCN(C(c2cc3ccccc3o2)c2nnnn2C2CCCC2)CC1 (stereo not drawn) as the compound, how does the inhibition read?
Answer: inactive: 8.6%

Question: CCCOc1ccc(C(=O)NCC2(N(C)C)CCCCC2)cc1 was tested. Which inhibition did it give?
Answer: inactive: -6.77%

Question: How did the inhibition turn out when COc1cccc(C(=O)N(c2cc(C)cc(C)c2)C2CCN(C(=O)OC(C)(C)C)CC2)c1 was run?
Answer: inactive: 8.99%

Question: COc1cccc(C(c2nnnn2C2CCCC2)N2CCC(n3c(=O)[nH]c4ccccc43)CC2)c1OC (stereo not drawn) was tested. Which inhibition did it give?
Answer: inactive: -2.58%

Question: How did the inhibition turn out when COc1cc(OC)cc(C(=O)NCC2(N3CCOCC3)CCCCC2)c1 was run?
Answer: inactive: -1.2%

Source: PubChem BioAssay AID652115 (Broad Institute, 2013)
